Measured values: article PMC9234956 (Journal of Medicinal Chemistry, 2022)

The chains behind the UniProt entries cited, without tags or fusion partners. Where a name states a change or a piece, a line headed by the entry shows the natural chain unless it says otherwise.
UniProt O35659: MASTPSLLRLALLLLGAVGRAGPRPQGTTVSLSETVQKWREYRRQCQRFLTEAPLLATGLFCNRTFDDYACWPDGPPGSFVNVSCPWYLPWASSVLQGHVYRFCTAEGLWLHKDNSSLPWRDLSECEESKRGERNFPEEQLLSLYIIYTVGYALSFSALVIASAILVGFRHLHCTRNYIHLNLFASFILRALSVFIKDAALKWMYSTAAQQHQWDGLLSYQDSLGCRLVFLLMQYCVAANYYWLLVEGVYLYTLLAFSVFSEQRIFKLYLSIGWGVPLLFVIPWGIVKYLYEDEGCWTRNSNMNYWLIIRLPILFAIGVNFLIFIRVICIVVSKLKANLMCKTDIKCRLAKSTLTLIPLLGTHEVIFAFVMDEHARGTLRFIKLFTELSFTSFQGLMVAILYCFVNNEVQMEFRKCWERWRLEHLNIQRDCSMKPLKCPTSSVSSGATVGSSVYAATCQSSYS

Target: T1, mouse GLP-1R S33W (Mus musculus, UniProt O35659, S33W)
T1 sequence (O35659 22-463 S33W): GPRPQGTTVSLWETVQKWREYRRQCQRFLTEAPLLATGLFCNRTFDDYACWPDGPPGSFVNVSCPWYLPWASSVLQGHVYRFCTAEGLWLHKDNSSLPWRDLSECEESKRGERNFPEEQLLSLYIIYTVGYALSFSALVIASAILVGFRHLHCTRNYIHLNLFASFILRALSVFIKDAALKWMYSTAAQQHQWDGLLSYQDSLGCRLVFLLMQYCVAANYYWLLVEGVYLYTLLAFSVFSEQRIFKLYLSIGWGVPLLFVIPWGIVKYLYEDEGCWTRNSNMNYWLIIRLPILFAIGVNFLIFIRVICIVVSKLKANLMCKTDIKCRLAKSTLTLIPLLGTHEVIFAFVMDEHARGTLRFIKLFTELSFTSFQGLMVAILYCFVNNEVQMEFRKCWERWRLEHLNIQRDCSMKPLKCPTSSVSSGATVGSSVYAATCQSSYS
Conditions: mouse and human wild-type and mutant constructs

GLP-1 [reference compound]
cAMP signaling, wild-type versus mutant receptors: comparable between wild-type and mutant receptors
